# Measurements reported in patent US10406239B2, “Water-soluble docetaxel anticancer drug compound and preparation method and use thereof” (NANJING YOUYI MEDICAL TECHNOLOGY CO., LTD, priority 2015, dated 2019).
# Read-outs that look alike come from different tables or passages of the source.
# Experiments:
# [1] = pH 7.40, 37° C.
substance,measurement,setting,value
Polyethylene Glycol Monomethyl Ether (Mn=1000) Docetaxel-2′-Diglycolate [XBB-023],Percentage content of XBB-023 after the hydrolysis of XBB-023,[1]; hydrolysis time 0 hr,98.489 Area %
same,Percentage content of docetaxel after the hydrolysis of XBB-023,[1]; hydrolysis time 0 hr,0.151 Area %
same,Percentage content of XBB-023 after the hydrolysis of XBB-023,[1]; hydrolysis time 1 hr,89.088 Area %
same,Percentage content of docetaxel after the hydrolysis of XBB-023,[1]; hydrolysis time 1 hr,8.764 Area %
same,Percentage content of XBB-023 after the hydrolysis of XBB-023,[1]; hydrolysis time 2 hr,81.724 Area %
same,Percentage content of docetaxel after the hydrolysis of XBB-023,[1]; hydrolysis time 2 hr,15.654 Area %
same,Percentage content of XBB-023 after the hydrolysis of XBB-023,[1]; hydrolysis time 5 hr,58.427 Area %
same,Percentage content of docetaxel after the hydrolysis of XBB-023,[1]; hydrolysis time 5 hr,34.732 Area %
same,Percentage content of XBB-023 after the hydrolysis of XBB-023,[1]; hydrolysis time 6 hr,50.359 Area %
same,Percentage content of docetaxel after the hydrolysis of XBB-023,[1]; hydrolysis time 6 hr,41.899 Area %
same,Percentage content of XBB-023 after the hydrolysis of XBB-023,[1]; hydrolysis time 7 hr,44.823 Area %
same,Percentage content of docetaxel after the hydrolysis of XBB-023,[1]; hydrolysis time 7 hr,46.871 Area %
same,Percentage content of XBB-023 after the hydrolysis of XBB-023,[1]; hydrolysis time 25 hr,13.289 Area %
same,Percentage content of docetaxel after the hydrolysis of XBB-023,[1]; hydrolysis time 25 hr,70.097 Area %
same,Percentage content of XBB-023 after the hydrolysis of XBB-023,[1]; hydrolysis time 31 hr,10.279 Area %
same,Percentage content of docetaxel after the hydrolysis of XBB-023,[1]; hydrolysis time 31 hr,70.969 Area %
same,Percentage content of XBB-023 after the hydrolysis of XBB-023,[1]; hydrolysis time 48 hr,6.213 Area %
same,Percentage content of docetaxel after the hydrolysis of XBB-023,[1]; hydrolysis time 48 hr,73.189 Area %
same,Percentage content of XBB-023 after the hydrolysis of XBB-023,[1]; hydrolysis time 55 hr,5.384 Area %
same,Percentage content of docetaxel after the hydrolysis of XBB-023,[1]; hydrolysis time 55 hr,74.509 Area %
same,Percentage content of XBB-023 after the hydrolysis of XBB-023,[1]; hydrolysis time 72 hr,4.156 Area %
same,Percentage content of docetaxel after the hydrolysis of XBB-023,[1]; hydrolysis time 72 hr,74.38 Area %
same,Percentage content of XBB-023 after the hydrolysis of XBB-023,[1]; hydrolysis time 79 hr,3.861 Area %
same,Percentage content of docetaxel after the hydrolysis of XBB-023,[1]; hydrolysis time 79 hr,75.506 Area %
same,Percentage content of XBB-023 after the hydrolysis of XBB-023,[1]; hydrolysis time 103 hr,3.299 Area %
same,Percentage content of docetaxel after the hydrolysis of XBB-023,[1]; hydrolysis time 103 hr,75.61 Area %
same,Percentage content of XBB-023 after the hydrolysis of XBB-023,[1]; hydrolysis time 168 hr,1.721 Area %
same,Percentage content of docetaxel after the hydrolysis of XBB-023,[1]; hydrolysis time 168 hr,74.708 Area %
same,average particle size,aqueous XBB-023 solution 2.5 mg/mL,101.2 nm
same,average particle size,aqueous XBB-023 solution 5 mg/mL,345.0 nm
